Results reported in US20110098554A1, “Monitoring of convection enhanced drug delivery” (priority 2004, published 2011).

Assay: CED into rat striatum, convection monitored by T1-weighted MRI of infusates mixed with Gd-DTPA
Experimental: The resultant solution was infused into the striatum of normal Sprague-Dawley (SD) rats (males, 250-300 grams). T1-weighted MR images were acquired immediately post treatment to assess the extent of convection. Additionally, T2-weighted and diffusion-weighted MR images were acquired 24 hours post treatment to assess the response of the tissue and its correlation to the extent of convection.
Under full anesthesia, a midline scalp incision was made to identify the bregma. A 1 mm burr hole was made in the right region of the skull, 3 mm anterior and 2 mm lateral to the bregma. A 33-gauge needle attached to a 1000 μl syringe (Gastight; Hamilton) was placed stereotactically 5.5 mm deep into the striatum. The infusion was performed using a BASI syringe pump at a rate of 1 μl/min for a duration ranging from […].
The volume (in cm^3) of the composition distribution was calculated from the T1-weighted MR images acquired immediately post CED treatment. Region-of interests (ROIs) were defined over the entire enhancing region in each slice (excluding the ventricles). The number of pixels in the ROIs was counted and multiplying by the volume of a single pixel. Equation 1 was used to calculate ADC maps of the diffusion-weighted MR images.

Gadolinium-diethylenetriamine pentaacetic acid [Gd-DTPA]
residual contrast agent in the brain (T1-weighted MRI) (24 hours post treatment): no residual
clearance of significant percentage from the tissue, time post infusion (sequential T1-weighted MR images, 3 cases): 2 to 4 h
